Values of other authors as cited in US20250049842A1, “THERAPEUTIC BLOOD-ACID-SHIFTING COMPOSITIONS AND METHODS” (priority 2023, published 2025).

Conditions: step (1) HA/A−

Hydroiodic Acid
pKa (pKa1, first or only dissociation): < 1
